Data: PMC11946513, “Modulation of the substrate preference of a MYST acetyltransferase by a scaffold protein” (The Journal of Biological Chemistry, 2025)

Chains of the proteins cited; added tags and fusions are not shown.
UniProt Q92794, whole entry, chain 1 of 2: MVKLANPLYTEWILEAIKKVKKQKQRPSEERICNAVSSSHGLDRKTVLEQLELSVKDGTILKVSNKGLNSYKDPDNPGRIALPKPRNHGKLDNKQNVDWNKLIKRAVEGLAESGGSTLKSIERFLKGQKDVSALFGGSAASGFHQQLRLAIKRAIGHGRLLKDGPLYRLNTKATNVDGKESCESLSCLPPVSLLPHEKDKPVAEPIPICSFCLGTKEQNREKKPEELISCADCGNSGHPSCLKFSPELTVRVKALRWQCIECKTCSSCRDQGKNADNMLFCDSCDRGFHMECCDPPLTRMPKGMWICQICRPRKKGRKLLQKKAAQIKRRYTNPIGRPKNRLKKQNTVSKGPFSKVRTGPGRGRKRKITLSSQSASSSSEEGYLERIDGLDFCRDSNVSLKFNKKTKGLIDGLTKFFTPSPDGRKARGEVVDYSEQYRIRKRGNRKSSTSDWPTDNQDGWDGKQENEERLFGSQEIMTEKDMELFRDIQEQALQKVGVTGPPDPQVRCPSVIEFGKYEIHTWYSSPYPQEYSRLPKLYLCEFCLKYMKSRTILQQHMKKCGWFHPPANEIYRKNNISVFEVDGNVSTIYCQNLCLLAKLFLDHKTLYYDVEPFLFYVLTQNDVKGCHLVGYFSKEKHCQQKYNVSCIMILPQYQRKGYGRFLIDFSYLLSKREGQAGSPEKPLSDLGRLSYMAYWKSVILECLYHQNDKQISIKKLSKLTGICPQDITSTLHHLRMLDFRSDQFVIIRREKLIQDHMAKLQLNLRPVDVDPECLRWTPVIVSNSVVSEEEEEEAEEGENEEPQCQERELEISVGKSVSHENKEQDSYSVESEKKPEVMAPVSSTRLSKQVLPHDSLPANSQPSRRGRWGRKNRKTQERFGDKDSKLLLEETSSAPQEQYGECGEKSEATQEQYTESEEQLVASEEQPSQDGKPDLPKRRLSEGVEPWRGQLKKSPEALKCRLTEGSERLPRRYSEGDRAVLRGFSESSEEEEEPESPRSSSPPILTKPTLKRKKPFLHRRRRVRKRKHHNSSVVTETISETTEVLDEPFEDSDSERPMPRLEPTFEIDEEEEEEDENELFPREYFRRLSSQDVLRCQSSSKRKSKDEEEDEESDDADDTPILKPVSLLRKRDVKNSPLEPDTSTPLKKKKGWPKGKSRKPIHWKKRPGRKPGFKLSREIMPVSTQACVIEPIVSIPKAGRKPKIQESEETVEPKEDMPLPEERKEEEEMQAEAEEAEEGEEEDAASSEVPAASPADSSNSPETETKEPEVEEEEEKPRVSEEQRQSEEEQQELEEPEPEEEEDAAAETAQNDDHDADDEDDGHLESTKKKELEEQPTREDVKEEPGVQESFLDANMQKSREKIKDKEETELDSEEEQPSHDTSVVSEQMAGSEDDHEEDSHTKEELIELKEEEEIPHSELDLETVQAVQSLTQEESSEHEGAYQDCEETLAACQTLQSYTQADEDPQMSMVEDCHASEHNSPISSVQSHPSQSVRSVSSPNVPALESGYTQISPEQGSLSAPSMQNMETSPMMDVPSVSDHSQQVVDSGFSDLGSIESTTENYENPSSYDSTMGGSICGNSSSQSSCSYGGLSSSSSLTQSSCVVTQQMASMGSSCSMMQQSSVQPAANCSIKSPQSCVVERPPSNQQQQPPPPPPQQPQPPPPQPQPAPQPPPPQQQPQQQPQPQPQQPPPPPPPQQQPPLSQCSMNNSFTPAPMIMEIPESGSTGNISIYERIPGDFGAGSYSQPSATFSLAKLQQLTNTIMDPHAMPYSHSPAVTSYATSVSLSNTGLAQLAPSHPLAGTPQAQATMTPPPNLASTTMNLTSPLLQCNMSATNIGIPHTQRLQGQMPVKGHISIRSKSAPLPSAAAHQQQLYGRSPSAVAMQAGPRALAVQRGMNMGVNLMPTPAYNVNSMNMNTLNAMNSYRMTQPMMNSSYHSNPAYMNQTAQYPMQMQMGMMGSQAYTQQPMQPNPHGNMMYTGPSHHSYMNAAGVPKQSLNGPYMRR

How the values were obtained:
[1] = molecular target: KAT6A^FL-BRPF1 2-protein complex (KAT6A^FL 2-plex) (human) (UniProt Q92794)
[2] = molecular target: KAT6A^FL 4-protein complex (KAT6A^FL 4-plex) (UniProt Q92794)

## H3 (1-21) (peptide)
[1]
  KM of steady-state acetylation of the peptide (CoA formation by MS; 20 μM AcCoA, 25 °C): 11 µM
[2]
  KM of steady-state acetylation of the peptide (CoA formation by MS; 20 μM AcCoA, 25 °C): 13 µM
